Columns and labels:
[1] = molecular target: Rat brain delta opioid receptor (Rattus norvegicus, UniProt P33533); experiment: Rat brain delta opioid receptor binding; conditions: read-out: rDOR Ki
[2] = molecular target: Rat brain mu opioid receptor (Rattus norvegicus, UniProt P33535); experiment: Rat brain mu opioid receptor binding assay ([3H]DAMGO); conditions: read-out: rMOR Ki
[3] = molecular target: human delta opioid receptor (Homo sapiens, UniProt P41143); experiment: [35S]GTPγS binding assay in CHO-hδ cell membranes; type: biochemical; conditions: read-out: hDOR GTPγS EC50; human delta opioid receptor GTPγS functional assay
mice = experiment: Mouse Abdominal Irritant Test (MAIT); conditions: acetylcholine bromide i.p. 30 min after drug
delta opioid receptor = delta opioid receptor (Mus musculus, UniProt P32300); experiment: [35S]GTPγS binding assay in NG108-15 cell membrane; type: biochemical; conditions: read-out: DOR GTPγS EC50; delta opioid receptor GTPγS functional assay

Chains of the proteins cited; added tags and fusions are not shown.
UniProt P33533, whole entry: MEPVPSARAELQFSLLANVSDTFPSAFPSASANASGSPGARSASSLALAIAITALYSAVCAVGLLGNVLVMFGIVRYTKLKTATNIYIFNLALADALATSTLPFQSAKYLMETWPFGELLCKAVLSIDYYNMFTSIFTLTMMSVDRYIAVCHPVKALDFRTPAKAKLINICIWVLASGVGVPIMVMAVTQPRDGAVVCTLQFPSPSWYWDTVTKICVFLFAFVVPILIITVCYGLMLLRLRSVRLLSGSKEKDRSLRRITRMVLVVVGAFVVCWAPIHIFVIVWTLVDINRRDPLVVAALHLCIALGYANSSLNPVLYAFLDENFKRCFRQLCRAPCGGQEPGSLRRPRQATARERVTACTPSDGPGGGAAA
UniProt P33535, whole entry: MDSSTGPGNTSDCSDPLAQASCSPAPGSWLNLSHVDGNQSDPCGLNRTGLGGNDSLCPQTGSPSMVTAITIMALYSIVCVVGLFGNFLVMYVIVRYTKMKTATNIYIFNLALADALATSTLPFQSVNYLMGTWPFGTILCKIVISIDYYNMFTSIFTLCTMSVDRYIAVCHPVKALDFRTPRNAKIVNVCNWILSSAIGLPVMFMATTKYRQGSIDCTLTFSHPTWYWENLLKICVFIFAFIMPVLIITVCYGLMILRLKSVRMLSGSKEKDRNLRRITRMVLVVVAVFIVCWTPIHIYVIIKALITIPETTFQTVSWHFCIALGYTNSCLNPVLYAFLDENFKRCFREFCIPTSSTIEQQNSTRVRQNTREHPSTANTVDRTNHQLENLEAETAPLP
UniProt P41143, whole entry: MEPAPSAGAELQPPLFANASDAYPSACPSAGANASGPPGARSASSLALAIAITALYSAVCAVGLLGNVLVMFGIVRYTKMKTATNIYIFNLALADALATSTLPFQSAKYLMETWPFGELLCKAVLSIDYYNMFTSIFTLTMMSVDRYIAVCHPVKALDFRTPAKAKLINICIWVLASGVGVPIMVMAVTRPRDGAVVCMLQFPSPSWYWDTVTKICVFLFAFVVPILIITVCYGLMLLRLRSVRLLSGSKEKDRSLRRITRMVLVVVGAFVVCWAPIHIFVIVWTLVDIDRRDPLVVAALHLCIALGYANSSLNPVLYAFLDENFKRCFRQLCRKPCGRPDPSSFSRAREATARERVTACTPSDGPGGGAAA
UniProt P32300, whole entry: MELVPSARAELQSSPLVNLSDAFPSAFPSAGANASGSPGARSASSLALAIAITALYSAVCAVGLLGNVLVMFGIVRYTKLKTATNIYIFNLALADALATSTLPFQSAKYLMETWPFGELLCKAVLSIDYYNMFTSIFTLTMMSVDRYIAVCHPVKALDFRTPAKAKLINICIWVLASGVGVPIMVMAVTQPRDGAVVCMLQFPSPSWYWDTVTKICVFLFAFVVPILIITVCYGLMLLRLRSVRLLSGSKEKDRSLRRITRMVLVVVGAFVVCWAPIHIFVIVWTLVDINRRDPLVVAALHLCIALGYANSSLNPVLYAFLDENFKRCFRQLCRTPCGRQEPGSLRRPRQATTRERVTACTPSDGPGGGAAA

Row | Structure (SMILES) | Ki [1] [nM] | Ki [2] [nM] | EC50 [3] [nM] | MAIT % I @ 150 μmol (mice) [%] | EC50 (delta opioid receptor) [nM]
1 | CCN(CC)C(=O)c1ccc2c(c1)Oc1ccc(-c3c(C)noc3C)cc1C2=C1CC2CCC(C1)N2 | 1350 | 6700 | – | – | –
2 | CCN(CC)C(=O)c1ccc2c(c1)Oc1ccccc1C2=C1CC2CCC(C1)N2Cc1c[nH]cn1 (single isomer, unassigned) | 0.88 | > 100 | 4.79 | – | –
3 | CCN(CC)C(=O)c1ccc2c(c1)Oc1cc(C)ccc1C2=C1CC2CCC(C1)N2 | 3.12 | 2950 | – | – | –
4 | CCN(CC)C(=O)c1ccc2c(c1)Oc1ccc(-c3ccccc3)cc1C2=C1CC2CCC(C1)N2 | 2890 | 37800 | – | – | –
5 | CCN(CC)C(=O)c1ccc2c(c1)Oc1ccccc1C2=C1CC2CCC(C1)N2CCO | 4.57 | > 100 | 14.3 | – | –
6 | CCN(CC)C(=O)c1ccc2c(c1)Oc1ccc(OC)cc1C2=C1CC2CCC(C1)N2 | 1020 | > 10000 | – | – | –
7 | CCN(CC)C(=O)c1ccc2c(c1)Oc1ccc(O)cc1C2=C1CC2CCC(C1)N2 | 44.4 | 3100 | – | – | –
8 | CCN(CC)C(=O)c1ccc2c(c1)Oc1ccc(-c3cccn3C(=O)OC(C)(C)C)cc1C2=C1CC2CCC(C1)N2 | 1080 | 15200 | – | – | –
9 | CC=C(C)CN1CCC(=C2c3ccccc3COc3cc(C(=O)NCC)ccc32)CC1 | 271 | 1810 | – | – | –
10 | CCNC(=O)c1ccc2c(c1)OCc1ccccc1C2=C1CCN(Cc2ccccn2)CC1 | 60.9 | 1150 | – | – | –
11 | CCNC(=O)c1ccc2c(c1)OCc1ccccc1C2=C1CCN(Cc2c[nH]cn2)CC1 | 218 | 2480 | – | – | –
12 | CCN(CC)C(=O)c1ccc2c(c1)Oc1ccccc1C2=C1CC2CCC(C1)N2Cc1cnc[nH]1 (single isomer, unassigned) [71] | 5.43 | 2770 | – | – | –
13 | CCN(CC)C(=O)c1ccc2c(c1)Sc1ccccc1C2=C1CC2CCC(C1)N2Cc1c[nH]cn1 [Compound 74] | 0.122 | 200 | – | – | –
14 | CCN(CC)C(=O)c1ccc2c(c1)Oc1ccccc1C2=C1CC2CCC(C1)N2Cc1cnc[nH]1 (single isomer, unassigned) [72] | 0.17 | 375 | – | – | –
15 | CCNC(=O)c1ccc2c(c1)OCc1ccccc1C2=C1CCN(CC2CC2)CC1 | 2040 | 4750 | – | – | –
16 | CCNC(=O)c1ccc2c(c1)Oc1ccccc1C2=C1CC2CCC(C1)N2 (single isomer, unassigned) [Compound 55] | 68.5 | 715 | – | 20 | –
17 | CCCCN(C)C(=O)c1ccc2c(c1)Oc1ccccc1C2=C1CC2CCC(C1)N2 | 12 | 884 | – | – | 77.9
18 | CCN(CC)C(=O)c1ccc2c(c1)Oc1ccc(-c3cccnc3)cc1C2=C1CC2CCC(C1)N2 | 1950 | 18700 | – | – | –

From patent publication US7982042B2, “Thiozanthene derivatives as delta-opioid modulators” (priority 2003, dated 2011)
